From PMC8427951, “Design, synthesis, and preliminary evaluation of a potential synthetic opioid rescue agent” (Journal of Biomedical Science, 2021)

Sequences of proteins named here, by UniProt entry; tags and fusion partners are left off.
UniProt P35372, whole entry, looked up: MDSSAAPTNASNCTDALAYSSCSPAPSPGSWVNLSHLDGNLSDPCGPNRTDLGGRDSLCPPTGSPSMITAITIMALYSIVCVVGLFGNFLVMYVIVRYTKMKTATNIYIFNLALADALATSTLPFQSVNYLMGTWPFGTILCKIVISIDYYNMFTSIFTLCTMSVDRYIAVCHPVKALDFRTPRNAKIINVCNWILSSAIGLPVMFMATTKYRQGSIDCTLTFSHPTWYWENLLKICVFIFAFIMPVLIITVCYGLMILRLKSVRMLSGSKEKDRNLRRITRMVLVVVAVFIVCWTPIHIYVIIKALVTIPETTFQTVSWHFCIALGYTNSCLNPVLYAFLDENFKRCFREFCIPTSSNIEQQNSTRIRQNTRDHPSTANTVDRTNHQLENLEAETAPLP

Legend:
[1] = target: T1, human μ opioid receptor (MOR) (Homo sapiens, UniProt P35372); experiment: Forskolin-induced cAMP accumulation (HitHunter cAMP assay), MOR antagonism versus fentanyl; settings: read-out: MOR antagonism IC50; versus EC90 of fentanyl; 15 min pretreatment; mean ± SEM, at least three measurements
[2] = target: T1, human μ opioid receptor (MOR); experiment: Schild analysis of antagonism against fentanyl, cAMP functional assay; settings: against fentanyl at MORs; for pA2 ± SEM: HillSlope and SchildSlope constrained to 1; for Schild slope ± SEM: three concentrations of antagonist; for Kd: read-out: Ke ± SEM (equilibrium dissociation constant), from EC50 shift at a single antagonist dose

Compound	IC50 [1]	pA2 ± SEM [2]	Schild slope ± SEM [2]	Kd [2]
O=C(/C=C/c1ccc(Cl)cc1)N[C@@]12CCC(=O)[C@@H]3Oc4c(O)ccc5c4[C@@]31CCN(CC1CC1)[C@@H]2C5 [CCAM, clocinnamox, reference compound]	29.6 nM	–	–	–
CCC(=O)O[C@@]12CCC(=O)[C@@H]3Oc4c(O)ccc5c4[C@@]31CCN(CC1CC1)[C@@H]2C5 [Compound 14]	4.22 nM	–	–	–
O=C1CC[C@@]2(OCCCC3CCCCC3)[C@H]3Cc4ccc(O)c5c4[C@@]2(CCN3CC2CC2)[C@H]1O5 [Compound 16]	> 10000 nM	–	–	–
O=C1CC[C@@]2(OC[C@H](O)CO)[C@H]3Cc4ccc(O)c5c4[C@@]2(CCN3CC2CC2)[C@H]1O5 [Compound 22]	6.49 nM	–	–	–
CO[C@H]1CC[C@@]2(O)[C@H]3Cc4ccc(O)c5c4[C@@]2(CCN3CC2CC2)[C@H]1O5 [Compound 25]	18.6 nM	–	–	–
CO[C@@H]1CC[C@@]2(O)[C@H]3Cc4ccc(O)c5c4[C@@]2(CCN3CC2CC2)[C@H]1O5 [Compound 26]	4.52 nM	–	–	–
C=CCOC12CCC(=C)C3Oc4c(O)ccc5c4C31CCN(CC1CC1)C2C5 (stereo not shown) [Compound 28]	2.03 nM	–	–	–
C=C1CC[C@@]2(OCCC)[C@H]3Cc4ccc(O)c5c4[C@@]2(CCN3CC2CC2)[C@H]1O5 [Compound 29]	2.06 nM	10.01 and 10.01 ± 0.18	1.04 ± 0.12	0.103 nM
C=C1CC[C@@]2(OC[C@H](O)CO)[C@H]3Cc4ccc(O)c5c4[C@@]2(CCN3CC2CC2)[C@H]1O5 [Compound 30]	3.58 nM	9.77 and 9.77 ± 0.14	1.22 ± 0.14	0.159 nM
β-funaltrexamine	31 nM	–	–	–

Values joined by “and” are separate entries in the source; they are usually repeats but may differ in a detail not shown here. Equal entries are not always repeated.
